These are literature values, as cited in patent US20240180818A1, “SKIN CARE FORMULATIONS WITH HYDROPHILIC ACTIVE INGREDIENT” (Metselaar Amsterdam Beheer B.V., priority 2021, published 2024).

This data set concerns young adult rats of both sexes.

Consider “tocopheryl polyethylene glycol 1000 succinate [TPGS]”, for which the “oral LD50” value is “more than 7 g/kg”.
